# In patent US7635693B2, “Methods for preventing and treating cancer using N-thiolated β-lactam compounds and analogs thereof” (University of South Florida, priority 2002, dated 2009):
# What was measured:
# Jurkat T cells = test: TUNEL assay (DNA strand breaks), Jurkat T cells; format: cell-based, human
# Experimental: Terminal deoxynucleotidyl transferase-mediated UTP nick end labeling (TUNEL) was performed to determine the extent of DNA strand breaks. TUNEL assay was performed with an APO-Direct kit per the manufacturer's instructions. In brief, cells are fixed in 1% paraformaldehyde and ethanol at […] overnight and then permeabilized with Proteinase K. After permeabilization, Fluorescein conjugated dNTP's and TdT enzyme (Terminal Deoxynucleotidyl Transferase) are added to the cells. The TdT enzyme is then able to label free ends of DNA with Fluorescein conjugated dNTPs that could then be detected by flow cytometry.
# The assay was performed following manufacturer's instruction using the APO-Direct kit. In brief, the harvested cells were fixed in 1% paraformaldehyde for 15 min on ice, washed with PBS, and then fixed again in 70% ethanol at −20° C. overnight. The cells were then incubated in DNA labeling solution (containing terminal deoxynucleotidyl transferase (TdT) enzyme, fluorescein-conjugated dUTP and reaction buffer) for 90 min at 37° C. After removing the DNA labeling solution by rinsing cells with Rinsing Buffer, the cells were incubated with the Propidium Iodide/RNase A solution, incubated for 30 min at room temperature in the dark, and then analyzed by flow cytometry within 3 h of staining.
# PARP = PARP cleavage, Western blot, Jurkat T cells; format: cell-based, human
# Text: A library of β-lactam analogs was screened for their ability to induce apoptosis. […] This is followed by preparation of cell lysates and measurement of apoptosis-specific caspase-3 activation (by cell-free caspase-3 activity assay) and PARP cleavage (by Western blotting).
structure (smiles),measurement,setting,value
"O=[N+]([O-])c1ccc(-c2nc(-c3ccc(F)cc3)c(-c3ccncc3)[nH]2)cc1 [PD-169316, 4-(4-fluorophenyl)-2-(4-nitrophenyl)-5-(4-pyridyl)-1H-imidazole, reference compound]",TUNEL positivity on co-treatment with lactam 1,Jurkat T cells,95%
same,effect on PARP cleavage induced by lactam 1,PARP,completely inhibited
